Experimental findings from PubChem BioAssay (NCI) are described below.

“And” between values parts separate entries of the source, which are not always exact repeats. Identical values can stand only once. The list shows a part of the results, in another mix than the full data. Some salts or complexes appear as unconnected parts, following the source record. The source made the active and inactive calls. Rule as the data show it: active = growth inhibition above about 70%; inactive = the rest.

The nature of experiment [1]: NCI Yeast Anticancer Drug Screen. Data for the rad50 strain (AID 155).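 Also: 0% = growth of vehicle-only cultures of the same strain.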 Particulars: S. cerevisiae rad50 strain growth inhibition; at 50.0 µM; hits give high values.
The nature of experiment [2]: NCI Yeast Anticancer Drug Screen. Data for the mec2-1 strain (AID 157). As to conditions: S. cerevisiae mec2-1 strain, at 50.0 µM, hits give high values.
Experiment [3] can be described thus: NCI Yeast Anticancer Drug Screen. Data for the sgs1 mgt1 strain (AID 161).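 Also: 0% = growth of cultures given vehicle only.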 Particulars: S. cerevisiae sgs1 mgt1 strain, at 50.0 µM, hits give high values.
Experiment [4] is described as follows: NCI Yeast Anticancer Drug Screen. Data for the cln2 rad14 strain (AID 165).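 Also: 0% = growth equal to vehicle treated cultures.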 Particulars: S. cerevisiae cln2 rad14 strain, at 50.0 µM, hits give high values.
Experiment [5] can be described thus: NCI Yeast Anticancer Drug Screen. Data for the bub3 strain (AID 167). As to conditions: S. cerevisiae bub3 mutant strain, at 50.0 µM, hits give high values.
The nature of experiment [6]: NCI Yeast Anticancer Drug Screen. Data for the mlh1 rad18 strain (AID 175). Particulars: S. cerevisiae mlh1 rad18 strain growth inhibition; at 50.0 µM; hits give high values.

Turning to `CCC([N+](=O)[O-])[N+](=O)[O-]`, the growth inhibition in experiment [1] is inactive: 13.8% and inactive: 14.9%; in experiment [2], inactive: 20.5% and inactive: 9.5%; in experiment [3] it was inactive: 7.05% and inactive: 27.1%; in experiment [4], inactive: 7.3% and inactive: 16.2%; in experiment [5] it was inactive: 5.35% and inactive: -6.55%; in experiment [6], inactive: 25.5% and inactive: 15.9%.
Take `Cc1cccc(N)c1.O=[N+]([O-])c1cc([N+](=O)[O-])c(O)c([N+](=O)[O-])c1`: the growth inhibition in experiment [1] is inactive: 14.2%; in experiment [2] it was inactive: 16.2%; in experiment [3], inactive: 16.1%; in experiment [4], inactive: -3.65%; in experiment [5] it was inactive: -3%; in experiment [6], inactive: 21%.
For the molecule `O=[N+]([O-])c1ccc(Nc2ccc([N+](=O)[O-])cc2[N+](=O)[O-])c([N+](=O)[O-])c1`, the growth inhibition in experiment [1] was inactive: -2.3%; in experiment [2], inactive: -2.9%; in experiment [3], inactive: -6.9%; in experiment [4], inactive: -30.4%; in experiment [5], inactive: 0.7%; in experiment [6], inactive: -14.3%.
For the molecule `CC(C)([N+](=O)[O-])C(C)([N+](=O)[O-])[N+](=O)[O-]`, the growth inhibition in experiment [1] was inactive: 39.1%; in experiment [2], inactive: -6.8%; in experiment [3], inactive: 37.2%; in experiment [4], inactive: 13.2%; in experiment [5], inactive: -1.15%; in experiment [6], inactive: 40%.
`N=C(OCCN)C(=N)OCCN.O=[N+]([O-])c1cc([N+](=O)[O-])c(O)c([N+](=O)[O-])c1`: the growth inhibition in experiment [1] was inactive: 10.2%; in experiment [2], inactive: 5.45%; in experiment [3], inactive: 14.4%; in experiment [4] it was inactive: -5.75%; in experiment [5], inactive: -0.55%; in experiment [6] it was inactive: 37.8%.
As for `O=C(CCCN1CCC(OC(=O)C(O)(c2ccccc2)c2ccccc2)CC1)c1ccc(F)cc1`, the growth inhibition in experiment [1] was inactive: 38.3%; in experiment [2], inactive: 46.5%; in experiment [3], inactive: 44.8%; in experiment [4], inactive: 55%; in experiment [5], inactive: 44%; in experiment [6], inactive: 48.6%.
Take `CCN(CC)CCOC(=O)C(O)(c1ccccc1)c1c(C)c(C)cc(C)c1C` (configuration not stated): the growth inhibition in experiment [1] is inactive: -1.7%; in experiment [2], inactive: 3.9%; in experiment [3], inactive: -5.8%; in experiment [4], inactive: -18.8%; in experiment [5], inactive: 1.35%; in experiment [6], inactive: 1.55%.
Take `C[N+]1(Cc2ccccc2C[N+]2(C)CCCCCC2)CCCCCC1.O=[N+]([O-])c1cc([N+](=O)[O-])c([O-])c([N+](=O)[O-])c1`: the growth inhibition in experiment [1] was inactive: 0.8%; in experiment [2] it was inactive: -2.85%; in experiment [3], inactive: -2.15%; in experiment [4] it was inactive: -23.6%; in experiment [5], inactive: -17.8%; in experiment [6] it was inactive: -7.45%.
On to `CCC([N+](=O)[O-])([N+](=O)[O-])[N+](=O)[O-]`, for which the growth inhibition was inactive: 46.1% in experiment [1]; inactive: 16.8% in experiment [2]; inactive: 19.1% in experiment [3]; inactive: 16.1% in experiment [4]; inactive: 4.55% in experiment [5]; inactive: 24.6% in experiment [6].
Turning to `COc1ccc2c(c1)C13CCN(C)C(C2)C1CC(C)=C(C)C3.O=[N+]([O-])c1cc([N+](=O)[O-])c(O)c([N+](=O)[O-])c1` (configuration not stated), the growth inhibition in experiment [1] was inactive: 45%; in experiment [2] it was inactive: -0.15%; in experiment [3] it was inactive: 24.2%; in experiment [4], inactive: -13.8%; in experiment [5], inactive: 6.3%; in experiment [6], inactive: 23.9%.
For the molecule `CCOP(C)(=S)Oc1ccc([N+](=O)[O-])cc1` (configuration not stated), the growth inhibition in experiment [1] was inactive: 25.4%; in experiment [2], inactive: 10.1%; in experiment [3], inactive: 13.4%; in experiment [4], inactive: 17.6%; in experiment [5], inactive: 27.8%; in experiment [6] it was inactive: 10.2%.
With `O=C(O)c1ccccc1C(=O)c1ccc2ccccc2c1.O=C1c2cc([N+](=O)[O-])ccc2-c2c1cc([N+](=O)[O-])cc2[N+](=O)[O-]`, the growth inhibition was inactive: 52.6% in experiment [1]; inactive: 57.9% in experiment [2]; active: 78.3% in experiment [3]; inactive: -5.4% in experiment [4]; inactive: 56.9% in experiment [5]; active: 77.6% in experiment [6].
As to `CCC(CC)NC(C)CO.O=[N+]([O-])c1cc([N+](=O)[O-])c(O)c([N+](=O)[O-])c1`, the growth inhibition was inactive: 14.7% in experiment [1]; inactive: -12% in experiment [2]; inactive: -4.65% in experiment [3]; inactive: -37% in experiment [4]; inactive: -10.9% in experiment [5]; inactive: 8.75% in experiment [6].
In the case of `CN1CCCC(=O)CC1.O=[N+]([O-])c1cc([N+](=O)[O-])c(O)c([N+](=O)[O-])c1`, the growth inhibition in experiment [1] was inactive: -2.15%; in experiment [2], inactive: -10.2%; in experiment [3], inactive: 31.6%; in experiment [4], inactive: -8.5%; in experiment [5], inactive: 15.8%; in experiment [6], inactive: -10.7%.
With `NC(=O)NC(=O)N[N+](=O)[O-]`, the growth inhibition is inactive: -2.7% in experiment [1]; inactive: -0.7% in experiment [2]; inactive: -5.85% in experiment [3]; inactive: 18.6% in experiment [4]; inactive: 2.05% in experiment [5]; inactive: 3.25% in experiment [6].
Turning to `CN(C)CCCl`, the growth inhibition in experiment [1] was inactive: 18.9%; in experiment [2], inactive: -4%; in experiment [3] it was inactive: 18.1%; in experiment [4], inactive: -1.5%; in experiment [5] it was inactive: -10.3%; in experiment [6] it was inactive: 24.4%.
Regarding `CN(C)[P+](C)(N(C)C)N(C)C`, the growth inhibition was inactive: 17.3% in experiment [1]; inactive: 16.4% in experiment [2]; inactive: 37.5% in experiment [3]; inactive: 19.9% in experiment [4]; inactive: 16.2% in experiment [5]; inactive: 32.2% in experiment [6].
